Experimental data reported in US20260022143A1, “Cyclic Peptide Inhibitors of IL-23” (JANSSEN PHARMACEUTICA NV, priority 2022, published 2026).

The molecules below were run against T1, IL-23R (Homo sapiens, UniProt Q5VWK5) (assay: IL23R Reporter Assay). Conditions: HEK293 cells containing IL-23R, IL-12RP1 and STAT-inducible firefly luciferase reporter; 10 ng/mL IL-23 (EC90); 5 h at 37° C.; read-out: IL23R Reporter Assay.
T1 construct: host or cells: HEK293
T1 sequence (Q5VWK5 24-629): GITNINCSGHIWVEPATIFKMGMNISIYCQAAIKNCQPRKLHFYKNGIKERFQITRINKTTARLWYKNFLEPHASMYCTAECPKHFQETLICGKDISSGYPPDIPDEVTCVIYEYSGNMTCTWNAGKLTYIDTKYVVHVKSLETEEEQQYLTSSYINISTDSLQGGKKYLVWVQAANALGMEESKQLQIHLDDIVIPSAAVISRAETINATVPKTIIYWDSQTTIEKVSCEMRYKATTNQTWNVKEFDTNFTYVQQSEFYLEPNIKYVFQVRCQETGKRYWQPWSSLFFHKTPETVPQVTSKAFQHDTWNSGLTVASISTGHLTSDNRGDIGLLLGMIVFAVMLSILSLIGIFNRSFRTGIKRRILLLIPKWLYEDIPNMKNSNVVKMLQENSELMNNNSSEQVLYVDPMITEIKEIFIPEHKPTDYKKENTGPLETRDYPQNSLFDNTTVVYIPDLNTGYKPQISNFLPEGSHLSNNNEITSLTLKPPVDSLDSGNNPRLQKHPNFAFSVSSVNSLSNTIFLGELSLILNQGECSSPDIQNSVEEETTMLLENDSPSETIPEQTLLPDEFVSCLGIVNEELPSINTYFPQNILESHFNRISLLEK
Type: cell-based

**Q.** Which IC50 does the source give for `CC(=O)N(C)CCCC[C@@H]1NC(=O)[C@H](Cc2c[nH]c3c(C)cccc23)NC(=O)[C@H]([C@@H](C)O)NC(=O)[C@H](CC(=O)N(C)C)NC(=O)[C@@H](NC(=O)CCOCCOCC[N+](C)(C)C)C(C)(C)SSC(C)(C)[C@@H](C(=O)N[C@@H](Cc2ccc(OCCCCC[N+](C)(C)C)cc2)C(=O)N[C@@H](Cc2ccc3ccccc3c2)C(=O)NC2(C(=O)N[C@@H](C)C(=O)N[C@@H](CC(N)=O)C(=O)N[C@@H](Cc3cccnc3)C(=O)N(C)CC(=O)N(C)C)CCOCC2)NC1=O` [compound 316, cPEG3aCO-Pen(3)-N(N(Me)2)-T-7MeW-K(NMeAc)-Pen(3)-TMAPF-2Nal-THP-A-N-3Pya-Sar-CON(Me)2] here?
**A.** The IC50 was 1.3 nM.

**Q.** With `CC(=O)NCCCC[C@@H]1NC(=O)[C@H](Cc2c[nH]c3c(C)cccc23)NC(=O)[C@H]([C@@H](C)O)NC(=O)[C@H](CC(N)=O)NC(=O)[C@@H](NC(=O)CCOCCOCC[N+](C)(C)C)C(C)(C)SSC(C)(C)[C@@H](C(=O)N[C@@H](Cc2ccc(OCCCCC[N+](C)(C)C)cc2)C(=O)N[C@@H](Cc2ccc3ccccc3c2)C(=O)NC2(C(=O)N[C@@H](C)C(=O)N[C@@H](CC(N)=O)C(=O)N[C@@H](Cc3cccnc3)C(=O)N(C)CC(=O)N(C)C)CCOCC2)NC1=O` [compound 317, cPEG3aCO-Pen(3)-N-T-7MeW-K(Ac)-Pen(3)-TMAPF-2Nal-THP-A-N-3Pya-Sar-CON(Me)2] as the molecule, how does the IC50 read?
**A.** The IC50 was 1.3 nM.

**Q.** `CC(=O)N(C)CCCC[C@@H]1NC(=O)[C@H](Cc2c[nH]c3c(C)cccc23)NC(=O)[C@H]([C@@H](C)O)NC(=O)[C@H](CC(=O)N(C)C)NC(=O)[C@@H](NC(=O)CCOCCOCC[N+](C)(C)C)C(C)(C)SSC(C)(C)[C@@H](C(=O)N[C@@H](Cc2ccc(OCCN(C)C)cc2)C(=O)N[C@@H](Cc2ccc3ccccc3c2)C(=O)NC2(C(=O)N[C@@H](CCCCN(C)C(C)=O)C(=O)N[C@@H](CC(N)=O)C(=O)N[C@@H](Cc3cccnc3)C(=O)N(C)CC(=O)N(C)C)CCOCC2)NC1=O` [compound 321, cPEG3aCO-Pen(3)-N(N(Me)2)-T-7MeW-K(NMeAc)-Pen(3)-AEF(N(Me)2)-2Nal-THP-K(NMeAc)-N-3Pya-Sar-CON(Me)2] was tested. Which IC50 did it give?
**A.** The IC50 was 1.3 nM.

**Q.** Which IC50 does the source give for `CC(=O)N(C)CCCC[C@H](NC(=O)C1(NC(=O)[C@H](Cc2ccc3ccccc3c2)NC(=O)[C@H](Cc2ccc(OCCCCC[N+](C)(C)C)cc2)NC(=O)[C@H]2NC(=O)[C@H](CCCC[N+](C)(C)C)NC(=O)[C@H](Cc3c[nH]c4c(C)cccc34)NC(=O)[C@H]([C@@H](C)O)NC(=O)[C@H](CC(=O)N(C)C)NC(=O)[C@@H](NC(=O)CCOCCOCC[N+](C)(C)C)C(C)(C)SSC2(C)C)CCOCC1)C(=O)N[C@@H](CC(N)=O)C(=O)N[C@@H](Cc1cccnc1)C(=O)N(C)CC(=O)N(C)C` [compound 329, cPEG3aCO-Pen(3)-N(N(Me)2)-T-7MeW-K(Me)3-Pen(3)-TMAPF-2Nal-THP-K(NMeAc)-N-3Pya-Sar-CON(Me)2] here?
**A.** The IC50 was 1.9 nM.

**Q.** For `CC(=O)N(C)CCCC[C@@H]1NC(=O)[C@H](Cc2c[nH]c3c(C)cccc23)NC(=O)[C@H]([C@@H](C)O)NC(=O)[C@H](CC(=O)N(C)C)NC(=O)[C@@H](NC(=O)CCOCCOCC[N+](C)(C)C)C(C)(C)SSC(C)(C)[C@@H](C(=O)N[C@@H](Cc2ccc(-n3cc(CCC[N+](C)(C)C)nn3)cc2)C(=O)N[C@@H](Cc2ccc3ccccc3c2)C(=O)NC2(C(=O)N[C@@H](CCCCN(C)C(C)=O)C(=O)N[C@@H](CC(N)=O)C(=O)N[C@@H](Cc3cccnc3)C(=O)N(C)CC(=O)N(C)C)CCOCC2)NC1=O` [compound 334, cPEG3aCO-Pen(3)-N(N(Me)2)-T-7MeW-K(NMeAc)-Pen(3)-F(4TzlTMA3)-2Nal-THP-K(NMeAc)-N-3Pya-Sar-CON(Me)2], which IC50 is on record?
**A.** Its IC50 is 1.1 nM.

**Q.** How did the IC50 turn out when `COCC[N+](C)(C)CCCCc1cn(-c2ccc(C[C@H](NC(=O)[C@H]3NC(=O)[C@H](CCCCN(C)C(C)=O)NC(=O)[C@H](Cc4c[nH]c5c(C)cccc45)NC(=O)[C@H]([C@@H](C)O)NC(=O)[C@H](CC(=O)N(C)C)NC(=O)[C@@H](NC(=O)CCOCCOCC[N+](C)(C)C)C(C)(C)SSC3(C)C)C(=O)N[C@@H](Cc3ccc4ccccc4c3)C(=O)NC3(C(=O)N[C@@H](CCCCN(C)C(C)=O)C(=O)N[C@@H](CC(N)=O)C(=O)N[C@@H](Cc4cccnc4)C(=O)N(C)CC(=O)N(C)C)CCOCC3)cc2)nn1` [compound 337, cPEG3aCO-Pen(3)-N(N(Me)2)-T-7MeW-K(NMeAc)-Pen(3)-F(4TzlDMA4mPEG)-2Nal-THP-K(NMeAc)-N-3Pya-Sar-CON(Me)2] was run?
**A.** Its IC50 is 1.9 nM.

**Q.** How did the IC50 turn out when `CC(=O)N(C)CCCC[C@@H]1NC(=O)[C@H](Cc2c[nH]c3c(C)cccc23)NC(=O)[C@H]([C@@H](C)O)NC(=O)[C@H](CC(=O)N(C)C)NC(=O)[C@@H](NC(=O)CCOCCOCC[N+](C)(C)C)C(C)(C)SSC(C)(C)[C@@H](C(=O)N[C@@H](Cc2ccc(OCCCCC[N+](C)(C)C)cc2)C(=O)N[C@@H](Cc2ccc3ccccc3c2)C(=O)N[C@H](C(=O)N[C@@H](CCCCN(C)C(C)=O)C(=O)N[C@@H](CC(N)=O)C(=O)N[C@@H](Cc2cccnc2)C(=O)N(C)CC(=O)N(C)C)C2CCCCC2)NC1=O` [compound 340, cPEG3aCO-Pen(3)-N(N(Me)2)-T-7MeW-K(NMeAc)-Pen(3)-TMAPF-2Nal-Chg-K(NMeAc)-N-3Pya-Sar-CON(Me)2] was run?
**A.** Its IC50 is 2.8 nM.

**Q.** With `CC(=O)N[C@H](CCCNC(=N)N)C(=O)N[C@@H]1C(=O)N[C@@H](CC(=O)N(C)C)C(=O)N[C@@H]([C@@H](C)O)C(=O)N[C@@H](Cc2c[nH]c3c(C)cccc23)C(=O)N[C@@H](CCCCN(C)C(C)=O)C(=O)N[C@H](C(=O)N[C@@H](Cc2ccc(OCCCCC[N+](C)(C)C)cc2)C(=O)N[C@@H](Cc2ccc3ccccc3c2)C(=O)NC2(C(=O)N[C@@H](CCCCN(C)C(C)=O)C(=O)N[C@@H](CC(N)=O)C(=O)N[C@@H](Cc3cccnc3)C(=O)N(C)CC(=O)N(C)C)CCOCC2)C(C)(C)SSC1(C)C` [compound 345, MeCO-r-Pen(3)-N(N(Me)2)-T-7MeW-K(NMeAc)-Pen(3)-TMAPF-2Nal-THP-K(NMeAc)-N-3Pya-Sar-CON(Me)2] as the molecule, how does the IC50 read?
**A.** Its IC50 is 2.5 nM.

**Q.** How did the IC50 turn out when `CC(=O)N(C)CCCC[C@@H]1NC(=O)[C@H](Cc2c[nH]c3c(C)cccc23)NC(=O)[C@H]([C@@H](C)O)NC(=O)[C@H](CC(=O)N(C)C)NC(=O)[C@@H](NC(=O)CCOCCOCC[N+](C)(C)C)C(C)(C)SSC(C)(C)[C@@H](C(=O)N[C@@H](Cc2ccc(OCCOCCOCC[N+](C)(C)C)cc2)C(=O)N[C@@H](Cc2ccc3ccccc3c2)C(=O)NC2(C(=O)N[C@@H](CCCCN(C)C(C)=O)C(=O)N[C@@H](CC(N)=O)C(=O)N[C@@H](Cc3cccnc3)C(=O)N(C)CC(N)=O)CCOCC2)NC1=O` [compound 363, cPEG3aCO-Pen(3)-N(N(Me)2)-T-7MeW-K(NMeAc)-Pen(3)-APEG3F-2Nal-THP-K(NMeAc)-N-3Pya-Sar-CONH2] was run?
**A.** The IC50 was 1.3 nM.

**Q.** Which IC50 does the source give for `CC(=O)N(C)CCCC[C@@H]1NC(=O)[C@H](Cc2c[nH]c3c(C)cccc23)NC(=O)[C@H]([C@@H](C)O)NC(=O)[C@H](CCCCNC(=O)CCOCCOCC[N+](C)(C)C)NC(=O)[C@@H](NC(=O)CCOCCOCC[N+](C)(C)C)C(C)(C)SSC(C)(C)[C@@H](C(=O)N[C@@H](Cc2ccc(OCCCCC[N+](C)(C)C)cc2)C(=O)N[C@@H](Cc2ccc3ccccc3c2)C(=O)NC2(C(=O)N[C@@H](CCCCN(C)C(C)=O)C(=O)N[C@@H](CC(N)=O)C(=O)N[C@@H](Cc3cccnc3)C(=O)N(C)CC(=O)N(C)C)CCOCC2)NC1=O` [compound 393, cPEG3aCO-Pen(3)-K(cPEG3a)-T-7MeW-K(NMeAc)-Pen(3)-TMAPF-2Nal-THP-K(NMeAc)-N-3Pya-Sar-CON(Me)2] here?
**A.** The IC50 was 1.9 nM.

**Q.** How did the IC50 turn out when `CC(=O)N(C)CCCC[C@@H]1NC(=O)[C@H](Cc2c[nH]c3c(C)cccc23)NC(=O)[C@H]([C@@H](C)O)NC(=O)[C@H](CC(=O)N(C)C)NC(=O)[C@@H](NC(=O)CCOCCOCC[N+](C)(C)C)C(C)(C)SSC(C)(C)[C@@H](C(=O)N[C@@H](Cc2ccc(OCCOCCOCCNC(=N)N)cc2)C(=O)N[C@@H](Cc2ccc3ccccc3c2)C(=O)NC2(C(=O)N[C@@H](CCCCN(C)C(C)=O)C(=O)N[C@@H](CC(N)=O)C(=O)N[C@@H](Cc3cccnc3)C(=O)N(C)CC(=O)N(C)C)CCOCC2)NC1=O` [compound 405, cPEG3aCO-Pen(3)-N(N(Me)2)-T-7MeW-K(NMeAc)-Pen(3)-GPEG3F-2Nal-THP-K(NMeAc)-N-3Pya-Sar-CON(Me)2] was run?
**A.** The IC50 was 1.9 nM.

**Q.** With `CC(=O)N(C)CCCC[C@@H]1NC(=O)[C@H](Cc2c[nH]c3c(C)cccc23)NC(=O)[C@H]([C@@H](C)O)NC(=O)[C@H](CC(=O)N(C)C)NC(=O)[C@@H](NC(=O)CCOCCNC(=N)N)C(C)(C)SSC(C)(C)[C@@H](C(=O)N[C@@H](Cc2ccc(OCCOCCOCC[N+](C)(C)C)cc2)C(=O)N[C@@H](Cc2ccc3ccccc3c2)C(=O)NC2(C(=O)N[C@@H](CCCCN(C)C(C)=O)C(=O)N[C@@H](CC(N)=O)C(=O)N[C@@H](Cc3cccnc3)C(=O)N(C)CC(=O)N(C)C)CCOCC2)NC1=O` [compound 413, cPEG2gCO-Pen(3)-N(N(Me)2)-T-7MeW-K(NMeAc)-Pen(3)-APEG3F-2Nal-THP-K(NMeAc)-N-3Pya-Sar-CON(Me)2] as the molecule, how does the IC50 read?
**A.** The IC50 was 1.7 nM.

**Q.** `CC(=O)NCCCC[C@@H]1NC(=O)[C@H](Cc2c[nH]c3c(C)cccc23)NC(=O)[C@H]([C@@H](C)O)NC(=O)[C@H](CC(N)=O)NC(=O)[C@@H](NC(=O)CCOCCOCC[N+](C)(C)C)C(C)(C)SSC(C)(C)[C@@H](C(=O)N[C@@H](Cc2ccc(-n3cc(CCC[N+](C)(C)C)nn3)cc2)C(=O)N[C@@H](Cc2ccc3ccccc3c2)C(=O)NC2(C(=O)N[C@@H](CCCCNC(C)=O)C(=O)N[C@@H](CC(N)=O)C(=O)N[C@@H](Cc3cccnc3)C(=O)N(C)CC(N)=O)CCOCC2)NC1=O` [compound 420, cPEG3aCO-Pen(3)-N-T-7MeW-K(Ac)-Pen(3)-F(4TzlTMA3)-2Nal-THP-K(Ac)-N-3Pya-Sar-CONH2] was tested. Which IC50 did it give?
**A.** The IC50 was 2.3 nM.
